Test system: human erythrocytes
Assay: Hemolytic activity assay
Type: cell-based

Compound	Hemolytic toxicity to human erythrocytes
Cc1cc(/C=C2\Sc3ccccc3N2CCCN2CCC(C)CC2)c2ccccc2[n+]1C.[I-] [Compound 4a4, (Z)-1,2-Dimethyl-4-((3-(3-(4-methylpiperidin-1-yl)propyl)benzo[d]thiazol-2(3H)-ylidene)methyl)quinolin-1-ium iodide]	did not exhibit hemolytic toxicity
CC1CCN(CCCN2/C(=C/c3cc[n+](C)c4ccccc34)Sc3ccccc32)CC1.[I-] [Compound 4b4, (Z)-1-Methyl-4-((3-(3-(4-methylpiperidin-1-yl)propyl)benzo[d]thiazol-2(3H)-ylidene)methyl)quinolin-1-ium iodide]	did not exhibit hemolytic toxicity

From paper PMC9052103 (RSC Advances, 2020)
